Data taken from ChEMBL document CHEMBL5257151, “Design, synthesis, and pharmacological evaluation of N-(3-carbamoyl-1H-pyrazol-4-yl)-1,3-oxazole-4-carboxamide derivatives as interleukin-1 receptor-associated kinase 4 inhibitors with reduced potential for cytochrome P450 1A2 induction” (Bioorg Med Chem, 2023).

By UniProt entry, the sequences of proteins in these tests, tags left out. Where a name states a change or a piece, a line headed by the entry shows the natural chain unless it says otherwise.
UniProt P36888, whole entry: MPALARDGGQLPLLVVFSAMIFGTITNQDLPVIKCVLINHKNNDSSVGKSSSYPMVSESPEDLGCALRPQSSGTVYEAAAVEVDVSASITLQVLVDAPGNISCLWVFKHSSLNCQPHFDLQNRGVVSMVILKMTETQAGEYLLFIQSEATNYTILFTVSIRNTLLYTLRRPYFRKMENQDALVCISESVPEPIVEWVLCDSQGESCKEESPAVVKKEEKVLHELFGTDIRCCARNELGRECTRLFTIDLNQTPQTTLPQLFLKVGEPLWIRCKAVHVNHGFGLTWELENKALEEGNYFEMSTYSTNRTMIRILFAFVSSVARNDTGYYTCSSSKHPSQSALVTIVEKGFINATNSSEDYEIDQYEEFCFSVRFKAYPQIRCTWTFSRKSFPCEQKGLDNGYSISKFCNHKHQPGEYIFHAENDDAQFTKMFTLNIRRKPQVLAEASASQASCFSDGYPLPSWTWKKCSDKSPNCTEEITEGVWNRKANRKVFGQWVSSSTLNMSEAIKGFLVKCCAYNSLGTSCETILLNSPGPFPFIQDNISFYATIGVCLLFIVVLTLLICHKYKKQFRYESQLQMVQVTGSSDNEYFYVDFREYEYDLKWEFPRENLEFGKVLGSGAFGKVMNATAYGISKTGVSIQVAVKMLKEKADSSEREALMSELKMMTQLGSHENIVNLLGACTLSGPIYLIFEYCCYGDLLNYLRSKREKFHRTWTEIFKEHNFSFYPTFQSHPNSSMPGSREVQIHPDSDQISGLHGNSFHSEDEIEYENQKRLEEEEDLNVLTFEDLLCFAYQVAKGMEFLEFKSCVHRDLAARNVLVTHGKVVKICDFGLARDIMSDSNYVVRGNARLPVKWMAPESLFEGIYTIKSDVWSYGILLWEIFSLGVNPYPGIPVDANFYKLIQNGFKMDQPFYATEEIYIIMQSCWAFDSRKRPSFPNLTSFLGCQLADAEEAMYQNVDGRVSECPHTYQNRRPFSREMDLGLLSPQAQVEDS
UniProt P16234: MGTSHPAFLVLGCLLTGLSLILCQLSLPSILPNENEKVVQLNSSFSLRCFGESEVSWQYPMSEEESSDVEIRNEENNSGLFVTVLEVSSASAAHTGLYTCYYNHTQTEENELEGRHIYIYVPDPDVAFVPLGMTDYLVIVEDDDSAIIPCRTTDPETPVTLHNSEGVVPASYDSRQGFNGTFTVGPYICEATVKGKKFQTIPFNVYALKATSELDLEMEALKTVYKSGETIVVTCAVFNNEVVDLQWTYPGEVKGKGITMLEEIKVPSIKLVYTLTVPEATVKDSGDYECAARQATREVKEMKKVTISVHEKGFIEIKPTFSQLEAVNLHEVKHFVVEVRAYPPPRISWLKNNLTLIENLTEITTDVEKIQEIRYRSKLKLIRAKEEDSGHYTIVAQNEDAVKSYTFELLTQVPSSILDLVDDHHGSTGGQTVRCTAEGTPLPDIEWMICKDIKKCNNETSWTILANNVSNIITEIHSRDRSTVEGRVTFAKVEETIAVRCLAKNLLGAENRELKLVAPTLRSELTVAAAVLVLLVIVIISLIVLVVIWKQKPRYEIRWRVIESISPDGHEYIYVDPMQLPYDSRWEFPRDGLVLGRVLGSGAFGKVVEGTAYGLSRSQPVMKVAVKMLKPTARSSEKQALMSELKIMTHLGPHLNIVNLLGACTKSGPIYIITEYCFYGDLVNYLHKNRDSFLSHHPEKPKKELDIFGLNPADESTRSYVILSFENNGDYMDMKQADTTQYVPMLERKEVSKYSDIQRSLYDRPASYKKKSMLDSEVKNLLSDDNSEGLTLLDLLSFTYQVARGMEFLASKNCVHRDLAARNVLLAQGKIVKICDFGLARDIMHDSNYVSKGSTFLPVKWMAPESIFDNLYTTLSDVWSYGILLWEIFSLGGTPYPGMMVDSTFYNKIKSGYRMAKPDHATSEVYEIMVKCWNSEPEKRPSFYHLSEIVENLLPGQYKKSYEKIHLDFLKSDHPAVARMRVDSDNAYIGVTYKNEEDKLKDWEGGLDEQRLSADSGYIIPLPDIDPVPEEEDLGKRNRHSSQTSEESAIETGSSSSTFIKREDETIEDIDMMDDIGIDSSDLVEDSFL
UniProt P07949, whole entry: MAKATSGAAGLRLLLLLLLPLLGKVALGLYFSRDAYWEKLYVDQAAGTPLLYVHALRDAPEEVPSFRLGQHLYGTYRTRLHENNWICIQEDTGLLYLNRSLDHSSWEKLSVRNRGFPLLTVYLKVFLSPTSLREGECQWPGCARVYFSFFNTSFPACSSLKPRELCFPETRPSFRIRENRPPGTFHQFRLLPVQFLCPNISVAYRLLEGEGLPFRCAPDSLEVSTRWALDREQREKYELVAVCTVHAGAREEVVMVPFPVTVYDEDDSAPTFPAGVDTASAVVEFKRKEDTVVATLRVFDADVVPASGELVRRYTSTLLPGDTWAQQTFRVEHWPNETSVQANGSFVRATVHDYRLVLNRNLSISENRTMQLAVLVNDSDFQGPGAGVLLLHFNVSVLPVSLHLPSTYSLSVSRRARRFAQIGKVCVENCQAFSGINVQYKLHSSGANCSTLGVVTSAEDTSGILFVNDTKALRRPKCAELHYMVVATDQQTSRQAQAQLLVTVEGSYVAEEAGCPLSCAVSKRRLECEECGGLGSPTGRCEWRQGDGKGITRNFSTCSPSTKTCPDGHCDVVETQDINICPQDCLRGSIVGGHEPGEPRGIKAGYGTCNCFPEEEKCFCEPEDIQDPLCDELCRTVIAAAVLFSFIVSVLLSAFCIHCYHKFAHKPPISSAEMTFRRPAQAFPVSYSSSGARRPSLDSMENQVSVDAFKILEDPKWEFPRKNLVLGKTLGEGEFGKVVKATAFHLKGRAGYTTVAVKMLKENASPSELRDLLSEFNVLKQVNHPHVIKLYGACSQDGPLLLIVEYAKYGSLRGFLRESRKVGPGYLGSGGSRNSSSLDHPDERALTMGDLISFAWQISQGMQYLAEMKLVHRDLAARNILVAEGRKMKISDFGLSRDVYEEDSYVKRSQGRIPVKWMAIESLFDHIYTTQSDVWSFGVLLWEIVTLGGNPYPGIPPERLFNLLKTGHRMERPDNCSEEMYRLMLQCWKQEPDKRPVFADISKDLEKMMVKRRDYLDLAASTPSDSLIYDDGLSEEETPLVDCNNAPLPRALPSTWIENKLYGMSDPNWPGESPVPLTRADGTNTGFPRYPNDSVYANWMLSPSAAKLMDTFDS
UniProt P49759: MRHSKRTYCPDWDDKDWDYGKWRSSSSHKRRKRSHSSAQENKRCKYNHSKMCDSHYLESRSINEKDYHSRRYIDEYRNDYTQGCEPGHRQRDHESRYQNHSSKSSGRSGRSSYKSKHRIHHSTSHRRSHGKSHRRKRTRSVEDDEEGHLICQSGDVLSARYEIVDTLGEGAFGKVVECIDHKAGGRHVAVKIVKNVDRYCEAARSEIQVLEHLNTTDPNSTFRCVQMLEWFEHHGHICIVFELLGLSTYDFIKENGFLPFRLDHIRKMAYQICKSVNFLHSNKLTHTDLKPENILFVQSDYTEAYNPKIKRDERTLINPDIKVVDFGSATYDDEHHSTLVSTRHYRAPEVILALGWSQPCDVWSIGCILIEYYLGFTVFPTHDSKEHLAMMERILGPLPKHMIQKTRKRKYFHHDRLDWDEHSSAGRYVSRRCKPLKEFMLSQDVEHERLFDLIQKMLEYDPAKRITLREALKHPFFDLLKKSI

How the values were obtained:
[1] = target: Receptor-type tyrosine-protein kinase FLT3 (Homo sapiens) (UniProt P36888); experiment: Inhibition of FLT3 (unknown origin) at 1 uM relative to control
[2] = target: T1, Tyrosine-protein kinase ITK/TSK (Homo sapiens) (UniProt Q08881); experiment: Inhibition of ITK (unknown origin) at 1 uM relative to control
T1 sequence (whole entry): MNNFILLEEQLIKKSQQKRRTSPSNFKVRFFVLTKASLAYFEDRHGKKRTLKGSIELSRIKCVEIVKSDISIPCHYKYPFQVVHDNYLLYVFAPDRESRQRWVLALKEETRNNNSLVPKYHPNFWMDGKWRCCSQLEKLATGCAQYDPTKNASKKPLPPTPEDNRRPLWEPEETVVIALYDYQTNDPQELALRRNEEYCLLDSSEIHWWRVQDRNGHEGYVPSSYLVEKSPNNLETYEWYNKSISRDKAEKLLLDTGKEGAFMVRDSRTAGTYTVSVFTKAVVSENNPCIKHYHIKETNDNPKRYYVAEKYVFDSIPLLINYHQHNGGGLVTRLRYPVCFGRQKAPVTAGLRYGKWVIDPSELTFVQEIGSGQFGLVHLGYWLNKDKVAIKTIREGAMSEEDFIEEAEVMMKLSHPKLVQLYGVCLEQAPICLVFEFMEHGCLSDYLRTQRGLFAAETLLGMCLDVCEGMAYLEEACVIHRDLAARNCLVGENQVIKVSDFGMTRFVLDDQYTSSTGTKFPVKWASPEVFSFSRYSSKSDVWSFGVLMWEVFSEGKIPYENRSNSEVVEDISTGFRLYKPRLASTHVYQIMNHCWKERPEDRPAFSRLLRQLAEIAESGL

[3] = target: Platelet-derived growth factor receptor alpha (Homo sapiens) (UniProt P16234); experiment: Inhibition of PDGFRalpha (unknown origin) at 1 uM relative to control
[4] = target: Proto-oncogene tyrosine-protein kinase receptor Ret (Homo sapiens) (UniProt P07949); experiment: Inhibition of RET (unknown origin) at 1 uM relative to control
[5] = target: Dual specificity protein kinase CLK1 (Homo sapiens) (UniProt P49759); experiment: Inhibition of CLK1 (unknown origin) at 1 uM relative to control

`Cc1cc(-c2nc(C(=O)Nc3cn(C4CCOCC4)nc3C(N)=O)co2)ccn1` showed an inhibition [1] of 99.6%, an inhibition [2] of 95% and an inhibition [3] of 80.3%. The inhibition [4] was 82.1% and the inhibition [5] was 97.8%.
